These results are taken from PubChem BioAssay (EPA / NIEHS).

The list shows a part of the results, in another mix than the full data. Some structures have more than one record in an assay (separate samples or runs), and their calls can disagree. Activity calls are given as the source filed them. How the source made its calls: active means hit-call score of the fitted dose curve at least 0.9, where 1 is the maximum; inactive means score below 0.9.

A short description of this assay: ATG_PPRE_CIS: Attagene CIS-FACTORIAL HepG2 Assay for human Peroxisome Proliferator-activated Response Element (PPRE) (AID 2282958). The settings on record: HepG2 PPRE cis-element reporter, Attagene transcription factor profiling; actives raise or lower the signal.
Take `O=C1O[C@@H]2[C@@H](O)[C@H](O)O[C@@H]2[C@H]1O`: the outcome was inactive.
The same measure, in the same setting: to `Cc1cc(CCC(=O)OCCOCCOCCOC(=O)CCc2cc(C)c(O)c(C(C)(C)C)c2)cc(C(C)(C)C)c1O` belongs “inactive”.
Regarding `CCc1ccc2c(c1)C(=O)c1ccccc1C2=O`, the outcome was inactive.
For the molecule `CCC(=O)OCCOc1ccccc1`, the molecule was called inactive.
On the same count and under the same terms, to `CC1=NC(C)OC1C` (stereo not given) belongs “inactive”; to `CC(N)=O`, “inactive”.
Take `CN1C(=O)CC[C@H]1c1cccnc1`: the outcome was inactive.
Still for that read-out and setting: to `CC1=Nc2ccc3ccccc3c2C1(C)C` belongs “inactive”.
On to `S=C(S)NCCNC(=S)S.[Mn+2].[S-]C([S-])=NCCN=C([S-])[S-].[Zn+2]`, for which the call was inactive.
As usually defined, the AC50 is the midpoint of the concentration-response curve, whichever way the signal moves. Take `O=C(Nc1ccccc1SSc1ccccc1NC(=O)c1ccccc1)c1ccccc1`: the half-maximal activity concentration (AC50) was active: 47.7 µM.
In the case of `Cc1occc(=O)c1O`, the call was inactive.
The same measure, in the same setting: the result for `CCCCc1ccc2c(n1)[C@@H](c1ccc(OC)cc1C[C@H](C)C(=O)O)[C@H](C(=O)O)[C@H]2c1ccc2c(c1)OCO2` reads “inactive”.
Consider `C=CCOC(=O)c1ccccc1C(=O)OCC=C`, for which the half-maximal activity concentration (AC50) was active: 26.5 µM.
Turning to `Cc1cc(O)c(Cl)c(C)c1Cl`, the result was inactive.
Same read-out and setting: the result for `C=CC(=O)OCCOCCOCC` reads “inactive”.
In the case of `CCN(CC)c1ccc(C(=O)c2ccccc2C(=O)O)c(O)c1`, the AC50 is active: 47 µM.
On to `CC1(C)C(=O)N(Cl)C(=O)N1Cl`, for which the result was inactive.
Still for that read-out and setting: to `CCCCCCOc1ccc(N)cc1` belongs “inactive”; to `O=C(O)CCCCCCCC(=O)O`, “inactive”.
Take `CCCCCCCCCC(C)C=O` (stereo not given): the half-maximal activity concentration (AC50) was active: 12.6 µM.
`NC(N)=S`: the molecule was classed as inactive.
Still for that read-out and setting: to `CCCCCCCO` belongs “inactive”.
Same read-out and setting: the result for `CCCCCCCCCCCCOCCO` reads “inactive”; that for `CCOC(=O)c1ccc(N)cc1`, “inactive”; that for `CCCCCC(=O)OCCc1ccccc1`, “inactive”.
Still for that read-out and setting: to `CCCCCCCCCCCCCCCS(=O)(=O)Oc1ccccc1` belongs “inactive”; to `CC1(C)OC[C@@H]2O[C@@]3(C(=O)O)OC(C)(C)O[C@H]3[C@@H]2O1`, “inactive”.
`CC(O)CC(C)(C)O` (stereo not given): the result was inactive.
On the same count and under the same terms, to `CCCCC(CC)COCC1CO1` (stereo not given) belongs “inactive”.
Same read-out and setting: to `CCCCCCCCCCC` belongs “inactive”.
The same measure, in the same setting: to `COc1ccc2nc(N)sc2c1` belongs “inactive”; to `C=C(C)C(=O)OCCC(F)(F)C(F)(F)C(F)(F)C(F)(F)C(F)(F)C(F)(F)F`, “inactive”; to `O=C1CCCC1`, “inactive”.
On to `c1ccc2occc2c1`, for which the result was inactive.
For `CC(=O)Oc1ccccc1C(=O)O`, the AC50 is active: 36.2 µM.
Regarding `CC(C)C[C@H]1C(=O)N2CCC[C@H]2[C@]2(O)O[C@](NC(=O)[C@@H]3C=C4c5cccc6[nH]c(Br)c(c56)C[C@H]4N(C)C3)(C(C)C)C(=O)N12`, the molecule was called inactive.
With `CCCCCCCCCCCCCCCCCC(=O)O`, the outcome was inactive.
With `CCCCCCc1ccc(O)cc1O`, the half-maximal activity concentration (AC50) is active: 31.1 µM.
In the case of `CCCOC(=O)NCCCN(C)C`, the outcome was inactive.
The same measure, in the same setting: to `CCCc1ccccc1O` belongs “inactive”.
